# Yeast mating assay B: variants of the scFv Ab-14

All variants were tested on one target, the spike HR2 peptide PDVDLGDISGINAS (SARS-CoV-2).

Ab-14 is the parent antibody, in scFv form: VH, then a 15-residue (Gly4Ser)3 linker, then VL. The light chain is unchanged in all variants.
VH: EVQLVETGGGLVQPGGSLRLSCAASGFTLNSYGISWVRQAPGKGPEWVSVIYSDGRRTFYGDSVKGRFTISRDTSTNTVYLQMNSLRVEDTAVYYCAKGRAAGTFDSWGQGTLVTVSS
VL: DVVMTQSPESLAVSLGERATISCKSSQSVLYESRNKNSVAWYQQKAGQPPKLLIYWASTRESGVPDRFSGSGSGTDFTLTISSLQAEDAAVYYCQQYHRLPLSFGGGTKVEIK

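The starting antibody came from a phage panning campaign against this peptide. This is the validation round: designs drawn from the data on random variants, tested in the same kind of assay. Several design methods are mixed in this list. The assay is AlphaSeq: two haploid yeast populations carry antibody and antigen on their surface. Pairs that bind mate more often; barcode pairs of the diploids are counted by sequencing. Scores were corrected for input abundance and mapped to Kd with protein pairs of known affinity run in the same pool. Each pool was mated in six replicate cultures.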

Substitutions are numbered in sequence along the VH above, starting at 1 (not Kabat). Variants here have at most six changes. The Kd shown is the geometric mean over detected replicates; a lower Kd is a better binder. An entry "not detected" has no value in the source: the pair was not observed among the diploids in any replicate. This suggests poor binding but is not conclusive. Order: sorted from the lowest average up, undetected variants last. Values of this round are not directly comparable with the first-round values of the same sequences.

changes,apparent Kd,seen in
T28N+S31E+S53A+G61S+R100E+S107T,270 pM,6 of 6
T28E+G61D+R100T+A101L,410 pM,6 of 6
T28D+S31E+S53A+G61L+R100E+S107Q,530 pM,6 of 6
T28D+S31E+S63A+S107K,650 pM,6 of 6
T28D+G61Q+R100T,970 pM,6 of 6
S31Q+G61A,1.2 nM,6 of 6
T28S+S31D+S107I,1.3 nM,6 of 6
T28E+S31D+G61Q+A101T,1.3 nM,6 of 6
T28N+G61V+S63D+A101T,1.4 nM,6 of 6
S31D+F59V,1.4 nM,6 of 6
T28E+G61S+R100K+A101N,1.6 nM,6 of 6
T28L+S31E+R56M+A101T,1.7 nM,6 of 6
S31E+D106K+S107R,1.9 nM,6 of 6
T28S+F59A+S63M,1.9 nM,6 of 6
T28S+S63D+R100S,2.0 nM,6 of 6
T28N+G61I+S63M+R100Q,2.2 nM,1 of 6
T28D+T58S+G61A+A101Q,2.2 nM,6 of 6
T28Q+S31E+G61K,2.6 nM,6 of 6
G61A+A101T+S107K,3.2 nM,3 of 6
G61S+A101V+S107T,3.3 nM,6 of 6
T28E+S31E+R100K,3.5 nM,6 of 6
T28G+S31E+A101E+S107N,3.6 nM,5 of 6
G26K+T28D+G61A+R100N,3.7 nM,6 of 6
S31E+R100K,4.4 nM,12 of 12
F59A+G61I+K65R+S107L,4.9 nM,6 of 6
R56K+G61S+A101T+S107T,5.1 nM,3 of 6
R56K+G61S+R100K+A102G,5.1 nM,6 of 6
S31D+F59Q+G61I+R100K,5.1 nM,1 of 6
L29I+A101N,5.5 nM,3 of 6
N30D+S63R+A101T+S107A,7.1 nM,5 of 6
G26K+G61D+R100Q+A101V,7.2 nM,5 of 6
G26S+T28S+S53A,7.3 nM,3 of 6
T28D+G61V+R100Q+S107Q,8.8 nM,3 of 6
T28S+S31E+G61M+R100K,9.6 nM,5 of 6
G26K+T28S+S31E+R100Q+A101T,10 nM,6 of 6
S31D+F59W+G61I,12 nM,6 of 6
T28S+S31N+R100V,16 nM,6 of 6
N30L+A101E,18 nM,4 of 6
G61H+A101E+T104S,18 nM,4 of 6
G26W+S31E+G61S,20 nM,6 of 6
T28G+G61Q+R100K,22 nM,3 of 6
F27A+N30D+A101V+S107V,31 nM,4 of 6
R56L+S107D,40 nM,2 of 6
G26M+T28E+S53A+R100Q,54 nM,5 of 6
S31E+G61T+A101F+D106S,57 nM,6 of 6
N30S+S53A,65 nM,4 of 6
T28W+S31D+A101Q,67 nM,4 of 6
T28S+F59M+G61D+A101Q,74 nM,6 of 6
G61S+R100H+A102G,93 nM,6 of 6
T28S+S31C+G61D+R100Q+A101L,130 nM,1 of 6
S31E+I34L+G61T+A101F,260 nM,2 of 6
F27D+V64F+R100F,320 nM,1 of 6
I34V+R56F,410 nM,2 of 6
F27L+G61S+A102G+D106M,16 µM,1 of 6
S31D+A101N+T104Q+D106S,not detected,0 of 6
T28S+S53A+G99R,not detected,0 of 6
G26D+I34S,not detected,0 of 6
T104M,not detected,0 of 6
S31T+S53A+A101R+A102R,not detected,0 of 6
N30K+G61D+R100K+A101L,not detected,0 of 6
F59W+G61D+R100T+A101L+T104F,not detected,0 of 6
R56M+G61A+V64F+G99W,not detected,0 of 6
A101V+A102G+T104L,not detected,0 of 6
G26T+K65R+S107I,not detected,0 of 6
T28D+G103M+T104W+D106N,not detected,0 of 6
T28D+S35Y+A101E+T104A+D106C,not detected,0 of 6
A101E+T104Q,not detected,0 of 6
N30K+G61V+R100K+A101L,not detected,0 of 6
T28D+S63D+T104H,not detected,0 of 6
F27V+D62N+G103V+S107D,not detected,0 of 6
R56K+R100Q+A101T+S107V,not detected,0 of 6
I34Y+T104S,not detected,0 of 6
F27A+T28S+S63Q+G103D+F105D,not detected,0 of 6
I34R+I51Y+S53A+F105N+D106K+S107C,not detected,0 of 6
F27E+F59A+S63R+K65R+G103V,not detected,0 of 6
S31Q+G55D+G61S+A101M+T104F,not detected,0 of 6
G61Q+S63R+R100E,not detected,0 of 6
T28D+L29F+V64N+T104W+D106N,not detected,0 of 6

A selection of 12 entries from above:

changes,apparent Kd,seen in
G26K+G61D+R100Q+A101V,7.2 nM,5 of 6
G61A+A101T+S107K,3.2 nM,3 of 6
R56L+S107D,40 nM,2 of 6
T28D+G103M+T104W+D106N,not detected,0 of 6
T28D+S63D+T104H,not detected,0 of 6
T28G+G61Q+R100K,22 nM,3 of 6
R56K+R100Q+A101T+S107V,not detected,0 of 6
N30K+G61V+R100K+A101L,not detected,0 of 6
S31E+D106K+S107R,1.9 nM,6 of 6
T28S+S63D+R100S,2.0 nM,6 of 6
F59A+G61I+K65R+S107L,4.9 nM,6 of 6
T28L+S31E+R56M+A101T,1.7 nM,6 of 6

Nonspecific signal, from three strains lacking the peptide, appeared in 1% of pairings of all heavy chain designs, centred on 120 nM (5% of these signals below 7.0 nM); values are not corrected for it. A sequence that the file lists under several names has all its replicates pooled. In the paper, a design with two or fewer of six values counts as a poor binder. The parent sequence was in this pool as ten entries: three were never detected, three once, and four in most replicates, with averages from 2.2 nM to 240 nM.

Reference: Li et al. 2023, doi:10.1038/s41467-023-39022-2. File: FLAb, binding data.